Test results from PubChem BioAssay AID690 (Sanford-Burnham Center for Chemical Genomics, 2007).
Only a part is listed here, and it is no random draw. Entries with a potency or affinity are not part of this list. Active and inactive are the calls of the source. The rule behind the calls is not given here.

Protein sequences, listed by entry. Tags and fused reporters are not part of them. Lines headed by an entry give the natural chain unless they say otherwise; changes in a name come on top.
UniProt P05187: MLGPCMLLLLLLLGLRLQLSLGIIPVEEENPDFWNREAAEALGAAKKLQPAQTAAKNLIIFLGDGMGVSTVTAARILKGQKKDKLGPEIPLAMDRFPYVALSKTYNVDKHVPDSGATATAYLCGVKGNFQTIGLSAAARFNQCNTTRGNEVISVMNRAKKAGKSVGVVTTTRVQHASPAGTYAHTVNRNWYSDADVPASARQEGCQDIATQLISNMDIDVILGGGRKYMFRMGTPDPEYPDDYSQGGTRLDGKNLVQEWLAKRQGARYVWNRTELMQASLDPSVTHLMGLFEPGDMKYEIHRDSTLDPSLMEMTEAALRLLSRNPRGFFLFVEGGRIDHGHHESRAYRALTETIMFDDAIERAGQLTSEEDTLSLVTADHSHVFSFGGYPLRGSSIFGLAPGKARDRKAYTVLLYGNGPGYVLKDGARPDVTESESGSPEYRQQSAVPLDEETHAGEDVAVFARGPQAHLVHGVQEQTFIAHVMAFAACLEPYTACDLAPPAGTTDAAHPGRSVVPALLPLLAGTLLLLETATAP

Biological target: Alkaline phosphatase, placental type (Homo sapiens) (UniProt P05187)
Experiment: PLAP enzyme inhibitors, biochemical, luminescence, HTS (AID 690)
Conditions: purified PLAP, luminescent substrate; at 20 µM; stronger effect = higher value

Question: For `CCOP1(=S)c2c(C)nn(CCC#N)c2N=C(c2ccc(F)cc2)N1C` (centres undefined), which inhibition is on record?
Answer: The inhibition was inactive: -27%.

Question: How did the inhibition turn out when `O=[N+]([O-])c1ccc2c(c1)nnn2O` was run?
Answer: The inhibition was inactive: 7.8%.

Question: How did the inhibition turn out when `CCOP1(=S)c2c(C)nn(CCC#N)c2N=C(c2ccccc2F)N1C` (centres undefined) was run?
Answer: The inhibition was inactive: -10.6%.

Question: `O=P(Nc1nccs1)(c1ccccc1)c1nc2ccccc2s1` (centres undefined) was tested. Which inhibition did it give?
Answer: The inhibition was inactive: -41.5%.

Question: Which inhibition does the source give for `Cc1cccc(OCC(=O)OC2CN3CCC2CC3)c1` (centres undefined) here?
Answer: The inhibition was inactive: 9.1%.

Question: How did the inhibition turn out when `O=P1(Nc2ccccn2)COc2ccccc2OC1` was run?
Answer: Its inhibition is inactive: -14.9%.

Question: `Clc1n[nH]nc1-c1nn[nH][15n]1` was tested. Which inhibition did it give?
Answer: Its inhibition is inactive: 6.7%.

Question: `O=P1(Nc2ncccn2)COc2ccccc2OC1` was tested. Which inhibition did it give?
Answer: The inhibition was inactive: -27.6%.

Question: For `Cc1ccc(OCC(=O)OC2CN3CCC2CC3)cc1` (centres undefined), which inhibition is on record?
Answer: Its inhibition is inactive: -1%.

Question: With `O=P1(Nc2ccc(Br)cn2)COc2ccccc2OC1` as the compound, how does the inhibition read?
Answer: Its inhibition is inactive: -11.5%.

Question: With `Cc1nn(-c2ccccc2)c2c1P(=O)(N1CCOCC1)N(C)C(c1ccccc1)=N2` (centres undefined) as the compound, how does the inhibition read?
Answer: Its inhibition is inactive: -29.4%.

Question: How did the inhibition turn out when `COP1(=S)c2c(C)nn(CCC#N)c2N=C(c2ccc(F)cc2)N1C` (centres undefined) was run?
Answer: Its inhibition is inactive: -36.1%.

Question: With `O=C(COc1ccccc1)OC1CN2CCC1CC2` (centres undefined) as the compound, how does the inhibition read?
Answer: Its inhibition is inactive: 2.8%.

Question: With `O=C(OC1CN2CCC1CC2)C12CC3CC(CC(C3)C1)C2` (centres undefined) as the compound, how does the inhibition read?
Answer: Its inhibition is inactive: -41.9%.

Question: Which inhibition does the source give for `CCN(CC)C(=S)SC(NC=O)C(Cl)(Cl)Cl` (centres undefined) here?
Answer: The inhibition was inactive: 13%.

Question: How did the inhibition turn out when `CCOP(=O)(Nc1ccccc1)OCC` was run?
Answer: Its inhibition is inactive: -12.6%.

Question: `Oc1ccccc1CNc1ccccn1` was tested. Which inhibition did it give?
Answer: The inhibition was inactive: -3.7%.

Question: With `Cc1c2non([O-])c-2c(C)[n+](=O)[n+]1[O-]` as the compound, how does the inhibition read?
Answer: Its inhibition is inactive: 7.3%.

Question: With `CC(C)CC(=O)NC(Sc1ccc(Cl)cc1)C(Cl)(Cl)Cl` (centres undefined) as the compound, how does the inhibition read?
Answer: The inhibition was inactive: 30.5%.

Question: Which inhibition does the source give for `CC1CCN(C(=O)Oc2c(Cl)cc(Cl)c3cccnc23)CC1` here?
Answer: The inhibition was inactive: -41.7%.

Question: Which inhibition does the source give for `CCc1nc2c(n1)c1c(non1O)c1c2no[n+]1[O-]` here?
Answer: Its inhibition is inactive: 1.4%.

Question: Which inhibition does the source give for `O=[N+]([O-])c1cccc2n[nH]nc12` here?
Answer: Its inhibition is inactive: 6.4%.

Question: Which inhibition does the source give for `O=C(OC1CN2CCC1CC2)c1cccc(Cl)c1` (centres undefined) here?
Answer: The inhibition was inactive: -6.1%.

Question: Which inhibition does the source give for `O=P(Nc1nccs1)(c1ccccc1)c1ccccc1` here?
Answer: Its inhibition is inactive: -16.2%.

Question: With `c1nnnn1CCn1cnnn1` as the compound, how does the inhibition read?
Answer: Its inhibition is inactive: -0.9%.

Question: For `O=P1(Nc2nc3ccc(Cl)cc3s2)COc2ccccc2O1` (centres undefined), which inhibition is on record?
Answer: Its inhibition is inactive: 1%.

Question: With `CCC(=O)N1C2C3N(C(=O)CC)C1C1N(C(=O)CC)C(C(N1C(=O)CC)N3C(=O)CC)N2C(=O)CC` as the compound, how does the inhibition read?
Answer: The inhibition was inactive: 29.2%.

Question: For `COC(=O)c1cc2c(s1)N=C(c1ccccc1)N(C)P2(=O)N1CCOCC1` (centres undefined), which inhibition is on record?
Answer: The inhibition was inactive: -15.9%.

Question: Which inhibition does the source give for `CCOC(=O)NC(Sc1ccccc1)C(Cl)(Cl)Cl` (centres undefined) here?
Answer: The inhibition was inactive: 3%.
